Test [1] has as its system Mus musculus. Description: Protective index, ratio of TD50 for ip dosed mouse to ED50 for maximum electric stimulus-induced seizure in ip dosed mouse. The class given is functional.
The subject of test [2] is Mus musculus. Kind of test: Protective index, ratio of TD50 for po dosed mouse to ED50 for maximum electric stimulus-induced seizure in po dosed mouse. The class given is functional. Summed up: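 Oral version of the phase-II protocol in KunMing mice (18–25 g). Groups of 10 dosed p.o. over a range giving at least three points between 10–90% MES protection or rotarod minimal neurotoxicity. Testing at 2 h time to peak effect. ED50 and TD50 with 95% confidence intervals from regression. PI = TD50/ED50.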

Consider `NC(=O)N1c2ccccc2C=Cc2ccccc21` [CARBAMAZEPINE], for which the values for the PI in test [1] and in test [2] were 8.1 and 14.1, respectively.
